Binding of CDR-mutated scFvs to a peptide of the spike HR2 region

All variants were tested on one target, the spike HR2 peptide PDVDLGDISGINAS (SARS-CoV-2).

Parent: Ab-14, a human scFv built as VH, three GGGGS repeats, VL. Only the CDRs of the light chain vary.
VH: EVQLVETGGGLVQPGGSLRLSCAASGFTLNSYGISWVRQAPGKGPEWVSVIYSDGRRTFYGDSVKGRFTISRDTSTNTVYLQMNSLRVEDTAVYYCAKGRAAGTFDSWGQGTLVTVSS
VL: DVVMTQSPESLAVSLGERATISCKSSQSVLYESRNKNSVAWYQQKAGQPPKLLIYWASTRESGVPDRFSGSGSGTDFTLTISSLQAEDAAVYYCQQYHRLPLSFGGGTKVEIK

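The parent was found by panning a naive human phage display library on the peptide. Designed CDR sequences, proposed from the first random library and measured here. Several design methods are mixed in this list. AlphaSeq pools MATa yeast showing the antibodies with MATalpha yeast showing the peptide. Binding brings cells together so that they mate, and sequencing counts the barcode pairs among the diploids. A regression on co-assayed BCL2-family reference pairs converts the normalised counts of each replicate to an apparent Kd. Each pool was mated in six replicate cultures.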

Each variant is given by its three light chain CDRs, as the data file delimits them; those of the parent are KSSQSVLYESRNKNSVA, WASTRES, QQYHRLPLS. Variants here have at most six changes. Each Kd is an estimate from the mating assay, the geometric mean of the replicates in which the pair was seen; lower is stronger. An entry "nd" has no value in the source: the pair was not observed among the diploids in any replicate. This suggests poor binding but is not conclusive. Nonspecific signal, from three strains lacking the peptide, appeared in 4% of pairings of all light chain designs, centred on 430 nM (5% of these signals below 38 nM); values are not corrected for it.

For YSSQSWLYESRNKNSVA / GASTRES / QQYHRLPLS, the assay gave 760 pM (6 of 6 replicates). Variant KLSQEVLFESRNKNSVA / DASTRES / QQYHRLPLS gave 310 pM (6 of 6 replicates). Variant KSRQSQEYESRNKNSVA / HASTRED / QQYHRLPLS showed 1.1 nM (6 of 6 replicates). With WLSQSVEYQSRNKNAVA / SASTRES / QQYHRLPLS the result was 1.9 nM (6 of 6 replicates). Variant KLEGSELYESRNKNSVA / NASTRES / QQYHRLPLS gave 540 pM (6 of 6 replicates). With KTGQGVLYESRNKNSVA / GASLRES / QQYHRLPLS the result was 970 pM (6 of 6 replicates). With KSEHSVLYESRNVNSVA / WASTRES / QQYARLPLS the result was 99 nM (4 of 6 replicates).

Variant KLQQSFLYESRNKNSVA / NASYRES / QQYHRLPLS showed 640 pM (6 of 6 replicates). Variant KSSQSVLYESQNKNSVA / WASTRES / QQYHSLPLS gave 110 nM (6 of 6 replicates). With KLSQSMLYESRNKNSVA / NASQRMS / QQYHRLPLS the result was 690 pM (6 of 6 replicates). For KYSPSYLYESRNKNSVA / QASTRES / QQYHRLPLS, the assay gave 2.1 nM (6 of 6 replicates). Variant KSSQSVLYEDSNKNSVA / WASTRES / QQYQRLPLL gave 63 nM (3 of 6 replicates). Variant KSSQSVLYESRRKNSVA / WASLRES / QQYHRLPLS gave nd (0 of 6 replicates). Variant KFSQSQLYESRMKNSVA / NASQRES / QQYHRLPLS gave 1.0 nM (6 of 6 replicates).

Variant YLSQSVLYESRNKNSVA / NASTRES / QQYHRLPLI gave 1.3 nM (6 of 6 replicates). Variant KSSQSVLYESLNLNSIA / WASTRES / QQQHRLPPS gave 80 nM (5 of 6 replicates). Variant KSSQSVIEESRNKNSVA / WASTRES / QQYHRLPLS showed 52 nM (4 of 6 replicates). Variant KSSQSVLYESRNKNNVA / MASTREC / QQYHRLPLS showed 33 nM (5 of 6 replicates). Variant KSSQNVLYESRNKNSLA / WASTRES / QQYHKLPLE showed 800 nM (3 of 6 replicates). Variant KSSQSVLYESRNKNSVA / AASTRES / QQVHRLPLS gave 120 nM (3 of 6 replicates). With KSSESGLYESRNKNSVA / EASTRES / QQYHRLPLS the result was 1.3 nM (6 of 6 replicates).

Variant HSSPSTLYESRNKNSVA / NASYRES / QQYHRLPLS gave 12 nM (6 of 6 replicates). For KLSQSVPYESRNKNSVA / EASTRCS / QQYHRLPLS, the assay gave 1.5 nM (6 of 6 replicates). With KSQQSVLYESRNKNSVA / WASTRES / QQMDRLPLS the result was nd (0 of 6 replicates). Variant RLMQSVLYESRNKNSVA / HASLRED / QQYHRLPLS gave 770 pM (6 of 6 replicates). For KLSQSYLYESRNKNSVA / NASTRES / QQYHRLPLS, the assay gave 3.8 nM (6 of 6 replicates). For KSSQSVLYESRNKNSVA / QASWRES / QQDHRLPLS, the assay gave nd (0 of 6 replicates). For KLSQSGGYEQRNKNSVA / EASTRED / QQYHRLPLS, the assay gave 350 pM (6 of 6 replicates).

With KLRQSTLYESRNKNSVA / QASTRES / QQYHRLPLM the result was 5.0 nM (6 of 6 replicates). With KLMQSSLYESRNKNSVA / QASTREW / QQYHRLPLS the result was 1.3 nM (6 of 6 replicates). Variant HSSPSVLMESRNKNSVA / DASTRES / QQYHRLPLS gave 610 pM (6 of 6 replicates). With KFMQSELYESRNKNSVA / NASQRES / QQYHRLPLS the result was 3.3 nM (6 of 6 replicates). For KMEQGVWYESRNKNSVA / GASVRES / QQYHRLPLS, the assay gave 800 pM (6 of 6 replicates). Variant KSSPSVEYESHNKNSVA / NASTRMS / QQYHRLPLS showed 3.5 nM (6 of 6 replicates). For KLSQSVQYESRNKNNVA / NASTRES / QQYHRLPLS, the assay gave 280 pM (6 of 6 replicates).

Variant KLSQSVLYESRNKNSVA / HASTRED / KQYHRLPLS showed 6.9 nM (6 of 6 replicates). Variant KISQSVLMEWRNKNSVA / DASTRES / QQYHRLPLS gave 2.7 nM (6 of 6 replicates). With KYSQSVEVESRNKNSVA / SASTRES / QQYVRLPLY the result was 420 pM (6 of 6 replicates). With KLSQSGLYESRNKNSVA / DASTRES / QQYHRLPLS the result was 730 pM (6 of 6 replicates). With KSSQSVLYESSNKYSVA / SASTRES / QQYHRLPLS the result was 4.0 nM (6 of 6 replicates). With KMSQSDLYESRNKNSVA / NASTRES / QQYHRLPLS the result was 550 pM (6 of 6 replicates). Variant KVSQSHLYESRNKNSVA / QASTRES / QQYHRLPLM showed 2.8 nM (6 of 6 replicates).

For KLSQSVLYESRNKNSVA / EASQRES / QDYHRLPLS, the assay gave 1.9 nM (6 of 6 replicates). With KQSQSVDFESRNKNSVA / DASTRES / QQYHRLPLS the result was 1.0 nM (6 of 6 replicates). With KVSQSQLYESRNKNAVA / NASQRES / QQYHRLPLS the result was 1.2 nM (6 of 6 replicates).

Again, the first 3 entries without any signal:

For KSSQSVLYESRRKNSVA / WASLRES / QQYHRLPLS, the assay gave nd (0 of 6 replicates).
For KSQQSVLYESRNKNSVA / WASTRES / QQMDRLPLS, the assay gave nd (0 of 6 replicates).
For KSSQSVLYESRNKNSVA / QASWRES / QQDHRLPLS, the assay gave nd (0 of 6 replicates).

The range of this assay differs from that of the first round, and the authors advise against merging the two. The authors averaged sequences with at least three values out of six and counted those with two or fewer as poor binders.

Data: MIT Lincoln Laboratory AlphaSeq set, Li et al. 2023, doi:10.1038/s41467-023-39022-2, as distributed in FLAb.